Data on one substance can be found in patent US8715537B2, “Molecular precursor methods and materials for optoelectronics” (Precursor Energetics, Inc., priority 2009, dated 2014).

Data set [1] can be described thus: Thermogravimetric analysis (TGA): transition of molecular precursor into material. Format: physicochemical. The method, then: Thermogravimetric analysis (TGA) was performed using a Q50 Thermogravimetric Analyzer (TA Instruments, New Castle, Del.). NMR data were recorded using a Varian 400 MHz spectrometer.
Data set [2] in a line: Solubility of molecular precursor in organic solvents. The format is physicochemical.

Regarding Cu—(S^tBu)3Ga^tBu [Example 6], the “TGA transition ending (completed) temperature” value in data set [1] (TGA, transition of precursor into material) is “about 225 °C”. The “TGA yield for the transition” value in data set [1] (residue at end of transition) was 45.7 % (w/w). In addition, in data set [2] (solvent benzene, 'heat'), the “Solubility: benzene” value was “ss heat”. Also, the “Solubility: diethyl ether” value in data set [2] (solvent diethyl ether) was “nil”. In addition, the “Solubility: pentane” value in data set [2] (solvent pentane) is “nil”. The “Solubility: toluene” value in data set [2] (solvent toluene, 'heat') was “s heat”.
